Test results published in patent US8815934B2 (dated 2014).

Protein sequences, listed by entry. Tags and fused reporters are not part of them.
UniProt P03372, whole entry: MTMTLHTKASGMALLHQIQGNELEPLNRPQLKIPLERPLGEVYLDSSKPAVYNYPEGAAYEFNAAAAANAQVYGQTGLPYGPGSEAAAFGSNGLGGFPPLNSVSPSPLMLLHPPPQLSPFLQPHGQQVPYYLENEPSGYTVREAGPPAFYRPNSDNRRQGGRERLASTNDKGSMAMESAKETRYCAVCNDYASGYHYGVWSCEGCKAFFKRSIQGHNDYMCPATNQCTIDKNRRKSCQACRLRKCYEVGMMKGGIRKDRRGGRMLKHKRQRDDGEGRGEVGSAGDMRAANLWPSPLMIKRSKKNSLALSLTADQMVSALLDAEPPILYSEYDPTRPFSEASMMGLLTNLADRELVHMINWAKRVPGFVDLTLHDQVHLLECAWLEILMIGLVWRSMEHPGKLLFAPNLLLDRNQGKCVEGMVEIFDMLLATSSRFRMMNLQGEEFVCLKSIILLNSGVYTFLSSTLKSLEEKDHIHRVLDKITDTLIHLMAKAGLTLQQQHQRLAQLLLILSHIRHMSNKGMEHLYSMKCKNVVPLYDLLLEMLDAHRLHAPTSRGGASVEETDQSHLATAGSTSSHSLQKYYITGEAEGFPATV

Molecular target: estrogen receptor (Homo sapiens (Human), UniProt P03372)
Test: In vitro estrogen receptor binding assay
Details: read-out: Receptor Binding IC50's; competition with [3H]17β-estradiol; cytosol of CHO cells overexpressing the estrogen receptor

Cc1c(-c2ccc(O)cc2)n(Cc2ccc(OCCN(C)C)cc2)c2ccc(O)cc12 [No. 100, 2-(4-Hydroxy-phenyl)-3-methyl-1-[4-(2-dimethyl-1-yl-ethoxy)-benzyl]-1H-indol-5-ol]
IC50: 60 nM
